The results in this text go back to ChEMBL document CHEMBL1155879, “Identification and validation of human DNA ligase inhibitors using computer-aided drug design” (J Med Chem, 2008).

Each structure is given as a SMILES string. Calls of active or inactive are those of the source. The rule behind the calls is not given here.

In the test the test system is DNA. Description: Inhibition of ethidium bromide binding to DNA at 100 uM.

`O=C1Nc2c(C(=O)O)cccc2C1=O`: the result was inactive.
